Experimental data: PubChem BioAssay (NCI)
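Where inhibition never reached the appropriate level, the endpoint shown equals the highest concentration tested. Otherwise, values were interpolated linearly from a five-concentration, 48-hour dose response in 96-well plates. At the TGI there is no net growth.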

Assays:
Experiment in all cases: NCI anticancer screen, dose series, 48 h
786-0 renal = system: 786-0 renal
A498 renal = system: A498 renal
A549 NSCLC = system: A549 NSCLC
ACHN renal = system: ACHN renal
BT-549 breast = system: BT-549 breast
CAKI-1 renal = system: CAKI-1 renal
COLO 205 colon = system: COLO 205 colon
DU-145 prostate = system: DU-145 prostate
EKVX NSCLC = system: EKVX NSCLC
HCT-116 colon = system: HCT-116 colon
HCT-15 colon = system: HCT-15 colon
HOP-62 NSCLC = system: HOP-62 NSCLC
HOP-92 NSCLC = system: HOP-92 NSCLC
HS 578T breast = system: HS 578T breast
HT29 colon = system: HT29 colon
IGROV1 ovarian = system: IGROV1 ovarian
K-562 leukemia = system: K-562 leukemia
KM12 colon = system: KM12 colon
LOX IMVI melanoma = system: LOX IMVI melanoma
M14 melanoma = system: M14 melanoma
MALME-3M melanoma = system: MALME-3M melanoma
MCF7 breast = system: MCF7 breast
MDA-MB-231 breast = system: MDA-MB-231 breast
MDA-MB-435 = system: MDA-MB-435
MDA-N = system: MDA-N
MOLT-4 leukemia = system: MOLT-4 leukemia
NCI-H226 lung = system: NCI-H226 lung
NCI-H23 lung = system: NCI-H23 lung
NCI-H322M lung = system: NCI-H322M lung
NCI-H460 lung = system: NCI-H460 lung
NCI-H522 lung = system: NCI-H522 lung
NCI/ADR-RES ovarian = system: NCI/ADR-RES ovarian
OVCAR-3 ovarian = system: OVCAR-3 ovarian
OVCAR-4 ovarian = system: OVCAR-4 ovarian
OVCAR-5 ovarian = system: OVCAR-5 ovarian
OVCAR-8 ovarian = system: OVCAR-8 ovarian
PC-3 prostate = system: PC-3 prostate
RPMI-8226 leukemia = system: RPMI-8226 leukemia
RXF 393 renal = system: RXF 393 renal
SF-268 CNS = system: SF-268 CNS
SF-295 CNS = system: SF-295 CNS
SF-539 CNS = system: SF-539 CNS
SK-MEL-2 melanoma = system: SK-MEL-2 melanoma
SK-MEL-28 melanoma = system: SK-MEL-28 melanoma
SK-MEL-5 melanoma = system: SK-MEL-5 melanoma
SK-OV-3 ovarian = system: SK-OV-3 ovarian
SN12C renal = system: SN12C renal
SNB-19 CNS = system: SNB-19 CNS
SNB-75 CNS = system: SNB-75 CNS
SR leukemia = system: SR leukemia
SW-620 colon = system: SW-620 colon
T-47D breast = system: T-47D breast
TK-10 renal = system: TK-10 renal
U251 CNS = system: U251 CNS
UACC-257 melanoma = system: UACC-257 melanoma
UACC-62 melanoma = system: UACC-62 melanoma
UO-31 renal = system: UO-31 renal

Measured: TGI

O=C(O)C1(Nc2ccccc2)CCN(Cc2ccccc2)CC1
> 100 µM: 786-0 renal | A498 renal | A549 NSCLC | ACHN renal | BT-549 breast | CAKI-1 renal | COLO 205 colon | DU-145 prostate | EKVX NSCLC | HCT-116 colon | HCT-15 colon | HOP-62 NSCLC | HOP-92 NSCLC | HS 578T breast | HT29 colon | IGROV1 ovarian | K-562 leukemia | KM12 colon | LOX IMVI melanoma | M14 melanoma | MALME-3M melanoma | MCF7 breast | MDA-MB-231 breast | MDA-MB-435 | MDA-N | MOLT-4 leukemia | NCI-H226 lung | NCI-H23 lung | NCI-H322M lung | NCI-H460 lung | NCI-H522 lung | NCI/ADR-RES ovarian | OVCAR-3 ovarian | OVCAR-4 ovarian | OVCAR-5 ovarian | OVCAR-8 ovarian | PC-3 prostate | RPMI-8226 leukemia | RXF 393 renal | SF-268 CNS | SF-295 CNS | SF-539 CNS | SK-MEL-2 melanoma | SK-MEL-28 melanoma | SK-MEL-5 melanoma | SK-OV-3 ovarian | SN12C renal | SNB-19 CNS | SNB-75 CNS | SR leukemia | SW-620 colon | T-47D breast | TK-10 renal | U251 CNS | UACC-257 melanoma | UACC-62 melanoma | UO-31 renal
